Bioassay records as filed in PubChem.
FGF22 binding – binders of human FGF22 protein, primary screen, FGF22 synaptogenesis inhibitor project, biophysical, thermal shift, single point; 1.5% of 340,000 active; Fibroblast growth factor 22 (Homo sapiens), Q9HCT0; activity (Tm shift, normalised), % at 9.99 µM; recombinant FGF22 thermal shift, SYPRO orange fluorescence; percent of sucrose octasulfate shift, DMSO zero;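 active means mean Tm shift, scaled 0 neutral to 100 positive control, at about 1.3% or above, every replicate too, limit read from the data; inconclusive means no clear call, values can overlap the other calls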
PDI inh – inhibitors of human PDI, primary screen, biochemical, turbidity, single point, plate reader | Protein disulfide-isomerase (Homo sapiens), P07237 | PDI insulin aggregation turbidity, A650, 90 min | inhibition, % at 10 µM | 0.052% of 350,000 active;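 active means mean inhibition across replicates of 30% or more, whatever share of single replicates reach that level; inconclusive means mean inhibition below 30% while every single replicate reaches 30%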
ARNT TACC3 PPI – disruptors of ARNT/TACC3 protein interaction, primary screen, biochemical, AlphaScreen, single concentration; 0.66% of 390,000 active; AlphaScreen His-ARNT PAS-B/GST-TACC3 binding, luminescence; TACC3 fragment carries E629A point mutation; inhibition, % at 9.99 µM; AID 623870, 2012;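 active means mean inhibition of replicates at least 50% and at least half of replicates each reaching 50%; inconclusive means half or more replicates reach 50% but mean below 50%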
ERp5 inh – inhibitors of ERp5-driven insulin aggregation, primary screen, biochemical, turbidity, absorbance 650 nm, single point. 0.05% of 350,000 active. AID 651711, 2012. inhibition, % at 9.99 µM. 90 min. Protein disulfide-isomerase A6 (Homo sapiens), Q15084;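 active means mean replicate inhibition above about 25%, with every replicate also reaching it, limit read from the data, passing the limit was not always enough; inconclusive means only one of those two criteria met; inactive means neither criterion met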
PglD inh – C. jejuni PglD acetyltransferase inhibitors, primary screen, biochemical, DTNB colorimetric, single point; UDP-N-acetylbacillosamine N-acetyltransferase PglD (Campylobacter jejuni); purified PglD enzyme, DTNB colorimetric CoA detection; inhibition, % at 12.5 µM; 0.098% of 360,000 active; AID 602405, 2012; in the data active means inhibition above about 16%, passing the limit was not always enough; inconclusive means no clear call, values can overlap the other calls
UUG fidelity – modulators of yeast start codon fidelity, primary screen, whole organism, S. cerevisiae, single point, plate reader | AID 602363, 2012 | S. cerevisiae UUG-firefly luciferase reporter, luminescence/redox ratio | activity score, % at 18.7 µM | hit rate 0.13% among 350,000;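 active = replicate mean at a twofold rise or more, about +100% in these data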;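 also: firefly luciferase made from a UUG start codon reports start codon fidelity; reporter light over untreated wells divided by growth signal over untreated wells; some hits fall short of that in this replicate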
Large screens that a line does not name were inactive. A selection: hits, their analogues and other compounds. The true share with any hit is near 1.9%.

COc1ccc(-c2nc(-c3ccccn3)ncc2S(C)(=O)=O)cc1	none (no result: PglD inh, UUG fidelity)
CC(C)S(=O)(=O)c1cnc(-c2ccccn2)nc1N	ARNT TACC3 PPI 74 (no result: PglD inh, UUG fidelity)
O=[N+]([O-])c1ccc(Nc2nc(N/N=C/c3cccc(F)c3)nc(N3CCCC3)n2)cc1	ERp5 inh inconclusive (no result: PglD inh, UUG fidelity)
O=[N+]([O-])c1ccc(Nc2nc(NC3CCCCC3)nc(N3CCCC3)n2)cc1	FGF22 binding 44 (no result: ARNT TACC3 PPI, PglD inh, UUG fidelity)
C[C@@H]1CN([C@@H](C)CO)C(=O)c2cc(/C=C/c3ccccc3)cnc2O[C@H]1CN(C)C(=O)Nc1ccccc1F	none (no result: PDI inh)
COc1ccc(C(=O)OCC(=O)Nc2nnc(-c3ccccc3)o2)cc1	none (no result: ARNT TACC3 PPI)
O=C(COC(=O)c1cccs1)NCC1CCCCC1	FGF22 binding 43 (no result: ARNT TACC3 PPI, PglD inh, UUG fidelity)
O=C(COC(=O)c1cccc(O)c1)Nc1nnc(-c2ccccc2)o1	ARNT TACC3 PPI 60
CCOc1ncccc1C(=O)OCC(=O)Nc1c(C)cccc1C	none (no result: FGF22 binding, ERp5 inh)
COc1cc(C(=O)OCC(=O)Nc2nnc(-c3ccccc3)o2)cc(OC)c1OC	ARNT TACC3 PPI 47 (no result: PglD inh, UUG fidelity)
CCOc1ncccc1C(=O)OCC(=O)Nc1nnc(-c2ccccc2)o1	ARNT TACC3 PPI 54 (no result: PglD inh, UUG fidelity)
O=C(COC(=O)c1cccs1)Nc1nnc(-c2ccccc2)o1	ARNT TACC3 PPI 61 (no result: FGF22 binding, PglD inh, UUG fidelity)
O=C(Nc1ccccc1)c1cc(S(=O)(=O)N2CCCCC2)ccc1N1CCOCC1	none
CCc1cccc(NC(=O)c2cc(S(=O)(=O)N3CCCCC3)ccc2N2CCOCC2)c1	FGF22 binding 43 (no result: ARNT TACC3 PPI)
O=C(NC(=S)Nc1ccc(Br)c(Cl)c1)C1CC1	none
CC(=O)c1ccc(NC(=S)Nc2ccc(Br)c(Cl)c2)cc1	FGF22 binding 1.4 (no result: PglD inh, UUG fidelity)
CC(=O)c1ccc(NC(=S)Nc2ccc3cn[nH]c3c2)cc1	FGF22 binding 1.8
CC(=O)N(C)C[C@H]1Oc2ncc(-c3cccc(C#N)c3)cc2C(=O)N([C@@H](C)CO)C[C@@H]1C	none (no result: PDI inh)
O=C(Cn1c(-c2ccccc2)c[n+]2ccsc12)c1ccc([N+](=O)[O-])cc1	FGF22 binding 43
COCCn1c(-c2ccc(OC)cc2)cnc1SCC(=O)Nc1cc(C)on1	none (no result: FGF22 binding, ERp5 inh)
COCCn1c(-c2ccc(OC)cc2)cnc1N	ARNT TACC3 PPI 45 (no result: FGF22 binding, ERp5 inh)
COc1ccc(NC(=O)Nc2ccc3c(c2)C(=O)N([C@H](C)CO)C[C@H](C)[C@@H](CN(C)S(C)(=O)=O)OCCCC[C@H](C)O3)cc1	none (no result: PDI inh)
Cc1cccc(OCC(=O)NCC(=O)N/N=C/c2ccc(O)cc2O)c1	none (no result: PglD inh, UUG fidelity)
O=C(COc1cccc(Br)c1)N/N=C/C(=O)c1ccccc1	FGF22 binding 43 (no result: PglD inh, UUG fidelity)
Cc1cccc(OCC(=O)NCC(=O)N/N=C/c2cc(Br)ccc2OCc2ccccc2)c1	none
Cc1cccc(OCC(=O)NCC(=O)N/N=C/c2ccccc2)c1	FGF22 binding 43
CC1NC(=S)N(C2CCCCC2)C1=O (centres undefined)	FGF22 binding 43 (no result: PglD inh, UUG fidelity)
CC(C)C#Cc1cnc2c(c1)C(=O)N([C@H](C)CO)C[C@@H](C)[C@H](CN(C)C(=O)Nc1ccc(F)cc1)O2	none (no result: PDI inh, ARNT TACC3 PPI)
Cn1cc(CN(CCO)Cc2cccs2)c(-c2ccccc2F)n1	FGF22 binding 43
COc1cccc(C(=O)Nc2ccc3c(c2)C(=O)N(C)C[C@H](OC)[C@H](C)CN(CC2CC2)[C@H](C)CO3)c1	none (no result: PDI inh)
C/C(=N\Nc1nc(N)cc(Cl)n1)c1ccc(F)cc1	ARNT TACC3 PPI 48
Cc1ccc2nc(NC(=O)c3ccc(N4C(=O)CCC4=O)cc3)sc2c1	FGF22 binding 43 (no result: PglD inh, UUG fidelity)
O=C(O)CCCN1C(=O)/C(=C\c2ccco2)SC1=S	none (no result: PglD inh, UUG fidelity)
O=C(O)CCN1C(=O)/C(=C\c2ccc(-c3nc4ccccc4s3)o2)SC1=S	ARNT TACC3 PPI 67 (no result: FGF22 binding, ERp5 inh)
S=c1nn[nH]c2ccccc12	FGF22 binding 43 (no result: PglD inh, UUG fidelity)
COc1ccc2c(c1)CCc1c(C(=O)Nc3ccn(Cc4ccc(C)cc4)n3)noc1-2	FGF22 binding 28
Cc1ccc(Cn2ccc(NC(=O)c3noc4c3CCc3ccccc3-4)n2)cc1	none (no result: FGF22 binding, ERp5 inh, PglD inh, UUG fidelity)
